From PubChem BioAssay AID2546 (National Center for Advancing Translational Sciences (NCATS), 2010)
The entries are a selection whose mix differs from that of the whole data set. Some of these compounds have results that are not shown, active ones among them. Inconclusive results are not listed. Calls of active or inactive are those of the source. Calls come from the whole dose curve; as a rule, active = well fitted inhibition curve with a large enough effect; inconclusive = small, poorly fitted or top-dose-only effect, or effect the other way; inactive = flat fitted curve, though single readings scatter.

experiment: VP16 counterscreen qHTS for inhibitors of ROR gamma transcriptional activity; conditions: Drosophila S2 Gal4-VP16 UAS-luciferase, luminescence, 20 h; at 53.6 µM (top of the series);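 note: Gal4-VP16 expression switched on by copper sulfate through the metallothionein promoter; nearly all actives have a fitted effect of over 50% in size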
% is set by controls: 0 for no effect and ±100 for the full control effect.

Row | Structure (SMILES) | activity, negative = inhibition
1 | Cc1ccccc1C(=O)NCC1(N2CCCCC2)CCCCC1 | inactive: -14.6%
2 | CN(C)C1CCCC1OC(=O)C(O)(c1ccccc1)c1ccccc1 (stereo not given) | inactive: -2.27%
3 | CN(C)c1ccc(C(=O)NCC2(N(C)C)CCCCC2)cc1 | inactive: 2.69%
4 | CN1CCCC(OC(=O)C(O)(c2ccccc2)c2ccccc2)C1 (stereo not given) | inactive: -4.61%
5 | C=CCN1CCN(CCOC(=O)C(O)(c2ccccc2)c2ccccc2)CC1 | inactive: -3.68%
6 | O=C(NCC1(N2CCCCC2)CCCCC1)c1cc(F)c(F)cc1Cl | inactive: 1.61%
7 | COc1ccc(C(=O)NCC2(N(C)C)CCCCC2)cc1 | inactive: 4.56%
8 | Cc1cc(C(=O)NCC2(N3CCCCC3)CCCCC2)ccc1[N+](=O)[O-] | inactive: 1.54%
9 | CCN1CCCC(OC(=O)C2(O)c3ccccc3C=Cc3ccccc32)C1 (stereo not given) | inactive: -19%
10 | O=C(NCC1(N2CCCCC2)CCCCC1)c1cccc(Br)c1 | inactive: 2.76%
11 | O=C(NCC1(N2CCCCC2)CCCCC1)c1cc([N+](=O)[O-])ccc1Cl | inactive: -1.94%
12 | CN1[C@@H]2CC[C@H]1CC(OC(=O)C(O)(c1ccccc1)c1ccccc1)C2 (stereo not given in full) | inactive: 3.22%
13 | CCN(CC)CC(C)C(C)OC(=O)C(O)(c1ccccc1)c1ccccc1 (stereo not given) | inactive: -3.13%
14 | COc1cc(SC)ccc1C(=O)NCC1(N(C)C)CCCCC1 | inactive: -1.4%
15 | CC(C)N1C(=O)CC2(CCN(CCOC(=O)C(O)(c3ccccc3)c3ccccc3)CC2)C1=O | inactive: 0%
16 | Cc1ccc(C(=O)NCC2(N3CCCCC3)CCCCC2)cc1 | inactive: 1.16%
17 | O=C(OC1CN2CCC1CC2)C(CO)(c1ccccc1)c1ccccc1 (stereo not given) | inactive: 4.79%
18 | COc1ccc(Br)c(C(=O)NCC2(N3CCCCC3)CCCCC2)c1 | inactive: -6.59%
19 | CC(C)Oc1ccc(C(=O)NCC2(N(C)C)CCCCC2)cc1 | inactive: 12.7%
20 | CN(C)c1cccc(C(=O)NCC2(N(C)C)CCCCC2)c1 | inactive: 4.53%
21 | CN(C)C1(CNC(=O)c2ccc(Br)cc2)CCCCC1 | inactive: 11.6%
22 | COc1cc(C(=O)NCC2(N(C)C)CCCCC2)c([N+](=O)[O-])cc1OC | inactive: -2.27%
23 | COc1cccc(C(=O)NCC2(N3CCCCC3)CCCCC2)c1 | inactive: 10.6%
24 | COc1ccc(Cl)cc1C(=O)NCC1(N(C)C)CCCCC1 | inactive: -1.8%
25 | O=C(NCC1(N2CCCCC2)CCCCC1)c1cccc(Cl)c1 | inactive: 3.87%
